Test system: TrkA receptors
Assay: TrkA receptor tyrosine phosphorylation in PC12 (615) cells (anti-pan-Trk immunoprecipitation, PY99 anti-phosphotyrosine immunoblot)
Assay type: cell-based
Method: Stably transfected PC12 cells expressing high levels of TrkA (615) were treated with the indicated compounds for 2 hours. The cells were subsequently harvested in lysis buffer as described in the Materials and Methods of Example 1. Lysates were immunoprecipitated with anti-pan Trk rabbit antiserum. Immunocomplexes were analyzed by immunoblotting with anti-phosphotyrosine antibody (PY99).
In FIG. 2A, different concentrations of adenosine were administered to PC12615 cells for 2 hours or NGF (1 ng/ ml) for 10 min. Cells were also treated with CGS21680 at the indicated dose for 2 hours. In FIG. 2B, PC12 cells (615) were treated with adenosine (10 μM) for various times or with 5 ng/ml NGF for 10 min. Phosphorylated TrkA receptors were detected by immunoblot analysis using PY99 anti-phosphotyrosine antibodies. […]
In FIG. 3A, PC12 cells (615) were treated with the A2A agonist CGS 21680 (10 nM) and an A1 agonist CPA (10 nM) for 2 hr. […] Activation of TrkA was assessed by immunoprecipitation and immunoblot analysis using PY99 anti-phosphotyrosine antibody.
In FIG. 7A, different concentrations of PACAP27 were administered to PC12 (615) cells for 2 hours or NGF (5 ng/ml) for 10 min. […] Phosphorylated TrkA receptors were detected by immunoblot analysis using PY99 anti-phosphotyrosine antibodies. […]
Immunoprotection and Immunoblotting. […] Equivalent amounts of protein were analyzed for each condition. […]

CCCN1CCC[C@@H]2Cc3n[nH]cc3C[C@H]21 [quinpirole]
Activation of TrkA receptors (tyrosine phosphorylation): not observed

Source: patent US7169568B2, “Method for screening molecules that exert a neurotrophic effect through activation of neurotrophin receptors” (New York University, priority 2000, dated 2007)
